A value given as a limit tells only on which side of the number the result lay.

A short description of the series: Cytotoxicity experiment (MTT method) on C8166 cells. Format: cell-based. To be noted: human; C8166 cells in vitro. As to the method:
C8166 cells infected with HIV-1 were used for determining the anti-HIV biological activity at the cellular level. The specific method was described below.
Cytotoxicity experiment: The toxicity of the compounds on C8166 cells was determined by MTT method. In 96-well cell culture plates, the compounds were subjected to 5-fold serial dilution and 100 μL of C8166 cell suspension (4×10^5/mL) was added into each well. Triplicate wells were set for each concentration. […] The cells were incubated at 37° C. in a 5% CO2 incubator for three days, followed by the addition of MTT solution into each well, and then the cells were incubated at 37° C. for 4 hours. 10% SDS-50% DMF was added into each well and the cells were incubated at 37° C. in a 5% CO2 incubator overnight. After mixing evenly, the OD values were measured by BIO-TEK ELx800 ELISA instrument (determination wavelength: 570 nm; reference wavelength: 630 nm).
(In general: Tetrazolium dyes change colour on reduction, which living cells bring about.)
The compound `CCc1c(CC2CCCCC2)nc(SCc2n[nH]c(-c3ccc(C)cc3)c2Cl)[nH]c1=O` [Compound I-22] registered a CC50 at 3 days of more than 200 µM.

As for `CCc1c(CC2CCCCC2)nc(SCc2n[nH]c(-c3cccc(F)c3)c2Cl)[nH]c1=O` [Compound I-15], the CC50 at 3 days is more than 200 µM.

`CCc1c(CC2CCCCC2)nc(SCc2n[nH]c(-c3ccccc3)c2Cl)[nH]c1=O` [Compound I-01] had a CC50 at 3 days of more than 200 µM.

Turning to `CCc1c(CC2CCCCC2)nc(SCc2n[nH]c(-c3ccc(Cl)cc3)c2Cl)[nH]c1=O` [Compound I-16], the 50% cytotoxic concentration (CC50) at 3 days was more than 200 µM.

The compound `CCc1c(CC2CCCCC2)nc(SCc2cc(-c3ccc(OC)cc3)[nH]n2)[nH]c1=O` [Compound I-10] returned a CC50 at 3 days of more than 200 µM.

By CC50 is commonly meant the concentration at which the toxic effect on the cells reaches its halfway point.

The values are drawn from patent US11447470B2, “Pyrimidinone-containing compound, preparation method thereof, pharmaceutical composition and application thereof” (YUNNAN UNIVERSITY, priority 2018, dated 2022).
